Patent publication US6376510B1, “Neuromuscular relaxants” (Newlaxant LLC, priority 1997, dated 2002)

Tested on: anesthetized rats (evoked responses of anterior tibial muscle)
Assay: Muscle relaxant (neuromuscular blocking) properties, anesthetized rat (Example 9, Table 9)
Details: at 80-85% neuromuscular blocking dose
Description: The data on muscle relaxant action were obtained on anesthetized rats, and when indicated, also on juvenile pigs
Adult, male albino rats were anesthetized with pentobarbital injected intraperitoneally. Juvenile, Duroc pigs 9-12 kg body weight were anesthetized with Chloralose Nembutal sodium mixture intraperitoneally after deep sedation with inhaled halothane. The trachea was cannulated for artificial respiration via a small animal respirator. The carotid artery was cannulated for recording blood pressure via a transducer and heart rate by a cardiotachograph on a polygraph. One external jugular vein was cannulated for i.v. drug administration. Neuromuscular function was monitored by electromyography, recording evoked responses from the anterior tibial muscle as a result of supramaximal nerve stimuli consisting of single or “train-of-four” rectangular pulses of 0.1-0.2 msec duration every 10-12 seconds, delivered to the sciatic or common peroneal nerve by a laboratory nerve stimulator. Another mode of stimulation included repeated single stimuli delivered at 0.1 Hz or 1 Hz. […] The agents were dissolved in physiologic saline and injected intravenously at appropriate time intervals. The intensity, onset, and duration of neuromuscular block and its type were determined with each agent. Through administering several doses, the doses corresponding to 50%, 80% and 90% neuromuscular block were determined. All agents were compared with selected standard neuromuscular blocking compounds, e.g., rocuronium.
Onset=time in minutes to 80-85% neuromuscular block.
RI=recovery index, minutes, spontaneous recovery, 25-75% neuromuscular response.
VB=vagal block, %, at 80-85% neuromuscular blocking dose.
HR=change in heart rate, %, at 80-85% neuromuscular blocking dose.
BP=change in arterial blood pressure, %, at 80-85% neuromuscular blocking dose.

Substance: Bis[4-dimethylaminocyclohexyl]glutarate bis(benzyl bromide) [reference compound]
- % VB at ED80 nmb (vagal block): 100%
- BP (change in arterial blood pressure): −15 (5) %
- HR (change in heart rate): 0%
